# Only a part is listed here, and it is no random draw. Active and inactive are the calls of the source.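 Rule for the calls: active = activity above about 14% (limit read from the data; passing the limit was not always enough); inactive = the rest.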
# Protein sequences, listed by entry. Tags and fused reporters are not part of them. Lines headed by an entry give the natural chain unless they say otherwise; changes in a name come on top.
# UniProt P20393: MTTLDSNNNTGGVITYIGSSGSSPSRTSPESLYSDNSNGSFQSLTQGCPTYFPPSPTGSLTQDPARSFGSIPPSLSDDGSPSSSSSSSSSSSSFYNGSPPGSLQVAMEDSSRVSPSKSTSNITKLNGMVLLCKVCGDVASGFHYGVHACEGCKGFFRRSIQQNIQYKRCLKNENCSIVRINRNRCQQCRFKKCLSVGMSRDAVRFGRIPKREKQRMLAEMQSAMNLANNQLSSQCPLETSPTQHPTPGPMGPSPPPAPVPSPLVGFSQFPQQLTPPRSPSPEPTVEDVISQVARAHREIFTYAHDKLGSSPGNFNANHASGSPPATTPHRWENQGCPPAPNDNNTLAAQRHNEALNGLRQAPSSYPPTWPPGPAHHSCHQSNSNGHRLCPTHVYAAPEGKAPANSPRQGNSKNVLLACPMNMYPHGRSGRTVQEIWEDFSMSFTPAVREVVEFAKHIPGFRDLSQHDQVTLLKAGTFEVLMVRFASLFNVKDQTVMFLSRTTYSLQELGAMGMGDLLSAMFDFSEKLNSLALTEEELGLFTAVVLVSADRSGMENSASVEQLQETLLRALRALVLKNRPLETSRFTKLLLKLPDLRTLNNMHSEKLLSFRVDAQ
# Biological target: Nuclear receptor subfamily 1 group D member 1 (Homo sapiens) (UniProt P20393)
# Assay: modulators of Rev-erb alpha DNA binding, primary screen, biochemical, FITC-DNA, fluorescence polarization, uHTS (AID 1259318);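 note: 0% = DMSO wells with 35 nM protein and 100% = DMSO wells with 750 nM protein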
# Conditions: Rev-erbα–FITC-DNA binding, 90 min, at 10 µM, stronger effect = higher value
row,SMILES,activity
1,COc1cc(C(=O)NCC2(N3CCOCC3)CCCCC2)cc(Cl)c1OC(C)C,inactive: 2.86%
2,O=[As](O)(O)c1cccnc1,inactive: -0.76%
3,O=C(OC1CN2CCC1CC2)c1ccc(Cl)cc1 (centres undefined),inactive: 0.28%
4,CCOP(=O)(Nc1cccc2ccccc12)OCC,inactive: 1.13%
5,COc1cc(C2NCCC3(OCCO3)C2(C)C)cc(OC)c1OC (centres undefined),inactive: -3.65%
6,CCCOP(=S)(Nc1nc(N)cc(=O)[nH]1)OCCC,inactive: 0.86%
7,Cc1ccc(NCCc2c([N+](=O)[O-])cc([N+](=O)[O-])cc2[N+](=O)[O-])cc1,inactive: 0.42%
8,Nc1cccc2c([As](=O)(O)O)cccc12,inactive: -18%
9,CC(C)(C)C(=O)NC(Sc1ncccn1)C(Cl)(Cl)Cl (centres undefined),inactive: 12.1%
10,O=P1(N(CCCl)CCCl)NCCC(C(F)(F)F)O1 (centres undefined),inactive: -5.86%
11,Clc1n[nH]nc1-c1nn[nH][15n]1,inactive: 5.31%
12,CN(CCCl)Cc1cc(Cl)c(NC2=NCCN2)c(Cl)c1,inactive: 1.81%
13,CCOP(=O)(Nc1ccc(C)cn1)OCC,inactive: 0.37%
14,CCOP(=O)(NC(=NC(C)c1ccccc1)NC(C)c1ccccc1)OCC (centres undefined),inactive: 1.56%
15,O=P1(Nc2ccccn2)COc2ccccc2OC1,inactive: 1.15%
16,CCC1=CC2Cc3nc4ccc(Cl)cc4c(N)c3C(C1)C2 (centres undefined),inactive: -1.59%
17,CC1(CBr)Cn2c(nc3ccccc3c2=O)S1 (centres undefined),inactive: -4.33%
18,CN(C(=O)Cc1ccc(Cl)c(Cl)c1)C1CCCC[C@@H]1N1CCCC1 (some centres undefined),inactive: 0%
19,CC(C)/C=N\N=C(\N)N[N+](=O)[O-],inactive: 1.15%
20,CN(C(=O)Cc1ccc(Cl)c(Cl)c1)[C@@H]1CCCC[C@H]1N1CCCC1,inactive: 4.99%
21,COc1ccccc1CNC(=O)COC(=O)C(O)(c1ccccc1)c1ccccc1,inactive: 1.2%
22,CCCC1OP(=O)(Nc2ccccc2)OCC1CC (centres undefined),inactive: -8.6%
23,O=C(/C=C/c1ccccc1)OC1CN2CCC1CC2 (centres undefined),inactive: -6.87%
24,CN(C)C1(CNC(=O)c2ccc(S(C)(=O)=O)cc2)CCCCC1,inactive: 5.09%
25,CC1CCC(C(C)C)C(OP(=O)(Nc2ccccn2)c2ccccc2)C1 (centres undefined),inactive: -1.99%

row,SMILES,activity
1,Cc1ccc(C(=O)OC2CN3CCC2CC3)cc1 (centres undefined),inactive: -8.84%
2,Cc1nn(-c2ccccc2)c2c1P(=O)(N1CCOCC1)N(C)C(c1ccccc1)=N2 (centres undefined),inactive: 0%
3,O=P1(Nc2ccc(Br)cn2)COc2ccccc2OC1,inactive: -2.38%
4,NS(=O)(=O)c1cccc(NC(=O)COC(=O)C(O)(c2ccccc2)c2ccccc2)c1,inactive: 7.44%
5,Cc1ccc(OCC(=O)OC2CN3CCC2CC3)cc1 (centres undefined),inactive: 0.77%
6,O=[As](O)(c1cccs1)c1cccs1,inactive: 0.16%
7,Nc1cccc([As](=O)(O)c2ccccc2)c1,inactive: 9.49%
8,O=P1(Nc2ncccn2)COc2ccccc2OC1,inactive: -1.16%
9,Cc1ccc(S(=O)(=O)N(CCCN)CCCc2c(C)nc(N)[nH]c2=O)cc1,inactive: 0.76%
10,Cc1cc(SC(NC(=O)c2ccccc2)C(Cl)(Cl)Cl)nc(C(C)C)n1 (centres undefined),inactive: -2.49%
11,CCCCOc1ccc(C(=O)NCC2(N3CCCCC3)CCCCC2)cc1OC,inactive: -2.85%
12,COP(=O)(OC)N1CC1c1ccccc1 (centres undefined),inactive: -2.03%
13,CC1CCNP(=O)(N(CCCl)CCCl)O1 (centres undefined),inactive: -9.54%
14,CCOC(=O)Nc1ccc([As](=O)(O)O)c(O)c1,inactive: 4.88%
15,O=C(O)C(O)c1ccc(N(CCCl)CCCl)cc1 (centres undefined),inactive: -2.11%
16,O=[N+]([O-])c1ccc(Nc2ccc(Oc3ccc([N+](=O)[O-])cc3[N+](=O)[O-])cc2)c([N+](=O)[O-])c1,inactive: 6.57%
17,O=P(Nc1ccccn1)(c1cccc2ccccc12)c1cccc2ccccc12,inactive: -0.35%
18,Cc1cc(SC(NC=O)C(Cl)(Cl)Cl)ncn1 (centres undefined),inactive: 4.11%
19,CCOC(=O)Nc1cccc([As](=O)(O)O)c1,inactive: 4.43%
20,O=C(Nc1ccncc1[N+](=O)[O-])c1ccc([N+](=O)[O-])cc1[N+](=O)[O-],inactive: -0.8%
21,O=C(COc1ccccc1)OC1CN2CCC1CC2 (centres undefined),inactive: -0.86%
22,O=C(O)C(=O)c1ccc(N(CCCl)CCCl)cc1,inactive: 2.99%
23,COC(=O)C1(C)COP(=O)(N2CCCC2)OC1 (centres undefined),inactive: -3.43%
24,COP1(=S)c2c(C)nn(CCC#N)c2N=C(c2ccc(F)cc2)N1C (centres undefined),inactive: 2.48%
25,CCC(C)N(CC(C)C)C(=S)SC(NC(C)=O)C(Cl)(Cl)Cl (centres undefined),inactive: 2.53%

row,SMILES,activity
1,CCOC(=O)c1ccc(NC(=O)C(C)(CCl)SC)cc1 (centres undefined),inactive: 0.28%
2,O=C(OC1CN2CCC1CC2)c1cccc([N+](=O)[O-])c1 (centres undefined),inactive: 3.24%
3,COc1cc(I)ccc1[As](=O)(O)O,inactive: 1.43%
4,COc1ccc2nc(NP(=O)(c3ccccc3)c3ccccc3)sc2c1,inactive: -0.72%
5,O=P1(N(CCCl)CCCl)Nc2ccccc2N1,inactive: 10.5%
6,O=P1(N(CCCl)CCCl)OCCCN1CCCl (centres undefined),inactive: -2.6%
7,Cc1cc(=O)[nH]c(N[N+](=O)[O-])n1,inactive: 0.87%
8,O=C(OC1CN2CCC1CC2)C12CC3CC(CC(C3)C1)C2 (centres undefined),inactive: -2.28%
9,Cc1c2c(nc3ccccc13)SC(C(Cl)Cl)C2 (centres undefined),inactive: 0.36%
10,COc1ccc(N/C(=N/P(=O)(N2CCOCC2)N2CCOCC2)N2CCOCC2)cc1,inactive: 2.81%
11,O=[N+]([O-])c1cc(Oc2ccc([N+](=O)[O-])cc2C(F)(F)F)cc([N+](=O)[O-])c1,inactive: 2.48%
12,Cc1ccc2nc3c(c(C)c2c1)CC(C(Cl)Cl)S3 (centres undefined),inactive: 3.14%
13,[N-]=[N+]=NC1CCCCC1NC(=O)c1cc([N+](=O)[O-])cc([N+](=O)[O-])c1 (centres undefined),inactive: -0.89%
14,Cc1ccc(OP(=O)(Nc2ccc([N+](=O)[O-])cn2)Oc2ccc(C)cc2)cc1,inactive: 1%
15,COc1cc(C(=O)NCC2(N3CCOCC3)CCCCC2)ccc1OCC(C)C,inactive: 5.99%
16,O=[N+]([O-])c1ccc(-c2cc([N+](=O)[O-])c(O)c([N+](=O)[O-])c2)cc1,inactive: -3.72%
17,C[As](=O)(O)c1cccc(C(=O)O)c1,inactive: 2.42%
18,O=[As](O)(c1ccc(O)cc1)c1ccccc1O,inactive: -6.08%
19,CCN(CC)C(=S)SC(NC=O)C(Cl)(Cl)Cl (centres undefined),inactive: 1.67%
20,O=C(OC1CN2CCC1CC2)c1cccc2[nH]cnc12 (centres undefined),inactive: -3.02%
21,CC(C)NC(=O)NP(=O)(Oc1ccccc1)Oc1ccccc1,inactive: 5.65%
22,CC(C)c1ccc(OP(=O)(Nc2ccccn2)Oc2ccccc2F)cc1 (centres undefined),inactive: 1.42%
23,COC(=O)C1(C)COP(=O)(N2CCCCCC2)OC1 (centres undefined),inactive: 3.84%
24,ClCCSc1nnc(-c2cccnc2)o1,inactive: 5.44%

# Reference: PubChem BioAssay AID1259318 (Sanford-Burnham Center for Chemical Genomics, 2017)
